Assays:
[1] = molecular target: T1, canonical mouse CB1Rs (mouse brain) (Mus musculus, UniProt P47746); type: binding; settings: 1 μM ligand, mouse brain membranes
T1 construct: membranes prepared from mouse brain containing a high density of mouse CB1 receptors (mCB1); from tissue; host or cells: mouse brain membrane homogenate
Description: The assay was conducted as previously detailed. […] All binding reactions were conducted in triplicate, in a final volume of 1 mL, and, following mixing, were incubated for 20 min in a 37 °C water bath to achieve equilibrium. After incubation, reactions were terminated by rapid vacuum filtration through Whatman GF/B glass fiber filters (Brandel; Gaithersburg, MD, USA), followed by three washes of 4 mls of ice-cold filtration buffer (50 mM Tris, pH 7.4, and 0.05% bovine serum albumin). Samples were punched out from filter papers into scintillation vials, to which 4 mls of ScintiverseTM-BDR cocktail scintillation fluid (Fisher Scientific; Hampton, NH, USA) was added. Filters were incubated at room temperature for 24 h in scintillation fluid, vortexed, and radioactivity (measured as DPMs) was quantified via a liquid scintillation spectrophotometer (Tri Carb 2100 TR Liquid Scintillation Analyzer, Packard Instruments, Meriden, CT, USA).

By UniProt entry, the sequences of proteins in these tests, tags left out.
UniProt P47746, whole entry: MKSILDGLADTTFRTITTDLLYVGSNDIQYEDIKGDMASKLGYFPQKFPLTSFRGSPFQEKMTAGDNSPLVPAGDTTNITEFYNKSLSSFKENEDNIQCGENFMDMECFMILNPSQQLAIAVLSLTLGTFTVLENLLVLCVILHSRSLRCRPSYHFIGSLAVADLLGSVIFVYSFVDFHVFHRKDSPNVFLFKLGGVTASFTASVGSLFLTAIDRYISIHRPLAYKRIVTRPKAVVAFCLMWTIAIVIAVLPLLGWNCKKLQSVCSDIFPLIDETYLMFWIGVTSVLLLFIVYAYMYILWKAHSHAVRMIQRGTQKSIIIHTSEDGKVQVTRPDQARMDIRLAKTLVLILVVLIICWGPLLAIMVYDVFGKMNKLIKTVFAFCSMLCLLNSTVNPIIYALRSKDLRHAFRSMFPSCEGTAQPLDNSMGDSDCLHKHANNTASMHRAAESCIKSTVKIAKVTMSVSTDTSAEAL
UniProt P34972, whole entry: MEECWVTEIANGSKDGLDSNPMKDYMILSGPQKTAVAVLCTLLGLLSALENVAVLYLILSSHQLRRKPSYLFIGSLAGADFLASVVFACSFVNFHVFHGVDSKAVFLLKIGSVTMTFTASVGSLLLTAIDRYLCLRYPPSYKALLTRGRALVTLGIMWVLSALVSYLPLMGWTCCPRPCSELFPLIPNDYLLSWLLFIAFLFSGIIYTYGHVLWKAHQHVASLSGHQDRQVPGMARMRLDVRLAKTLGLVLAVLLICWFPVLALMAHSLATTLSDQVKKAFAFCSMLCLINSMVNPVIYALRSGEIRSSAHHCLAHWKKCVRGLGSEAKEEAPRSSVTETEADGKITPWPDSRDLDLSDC

[2] = molecular target: T2, canonical CBRs stably expressed in CHO-hCB2 (Homo sapiens, UniProt P34972); assay: Adenylyl cyclase modulation in whole CHO-hCB2 cells; type: cell-based; settings: 10 μM
T2 construct: expressed in transfected cells

Cc1c(C(=O)c2cccc3ccccc23)c2cccc3c2n1[C@H](CN1CCOCC1)CO3 [WIN-55,212-2]
displacement of [^3H]CP-55,940 ([1]; 0.2 nM radioligand): produced near or complete displacement
displacement of [^3H]WIN-55,212-2 (Figure 1B) ([1]; 1 nM radioligand): produced near or complete displacement
reduction of forskolin-stimulated intracellular cAMP levels [2]: 71.3 ± 8.2%
